{"sequences": {"note": "By UniProt entry, the sequences of proteins in these tests, tags left out.", "UniProt P09874, whole entry": "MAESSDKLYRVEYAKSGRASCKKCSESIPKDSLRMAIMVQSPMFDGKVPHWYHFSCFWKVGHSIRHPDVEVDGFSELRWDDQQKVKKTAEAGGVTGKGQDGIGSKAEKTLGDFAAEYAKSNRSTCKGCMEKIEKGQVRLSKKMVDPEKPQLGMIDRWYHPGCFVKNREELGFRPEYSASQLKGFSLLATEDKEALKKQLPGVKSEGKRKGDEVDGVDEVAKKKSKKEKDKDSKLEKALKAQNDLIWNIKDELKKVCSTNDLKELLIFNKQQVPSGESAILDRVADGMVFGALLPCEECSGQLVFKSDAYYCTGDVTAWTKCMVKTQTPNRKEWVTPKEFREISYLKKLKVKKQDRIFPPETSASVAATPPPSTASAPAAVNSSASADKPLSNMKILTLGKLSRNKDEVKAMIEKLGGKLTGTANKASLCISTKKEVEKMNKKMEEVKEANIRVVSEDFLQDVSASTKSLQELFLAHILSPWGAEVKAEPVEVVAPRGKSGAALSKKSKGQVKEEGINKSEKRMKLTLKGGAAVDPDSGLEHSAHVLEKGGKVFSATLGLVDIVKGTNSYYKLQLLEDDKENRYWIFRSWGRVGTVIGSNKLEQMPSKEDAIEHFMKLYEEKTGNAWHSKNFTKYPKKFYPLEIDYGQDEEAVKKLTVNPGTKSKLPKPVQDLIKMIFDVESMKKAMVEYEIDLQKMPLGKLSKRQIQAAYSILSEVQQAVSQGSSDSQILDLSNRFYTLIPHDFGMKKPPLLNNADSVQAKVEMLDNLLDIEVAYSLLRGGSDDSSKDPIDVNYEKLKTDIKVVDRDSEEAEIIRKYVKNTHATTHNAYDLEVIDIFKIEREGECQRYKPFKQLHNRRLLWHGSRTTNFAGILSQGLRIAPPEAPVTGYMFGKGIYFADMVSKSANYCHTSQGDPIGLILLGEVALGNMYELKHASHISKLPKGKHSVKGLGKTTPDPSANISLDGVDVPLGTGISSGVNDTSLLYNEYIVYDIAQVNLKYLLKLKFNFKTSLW"}, "source": "ChEMBL document CHEMBL1145841", "about": "“Design and synthesis of poly ADP-ribose polymerase-1 inhibitors. 2. Biological evaluation of aza-5[H]-phenanthridin-6-ones as potent, aqueous-soluble compounds for the treatment of ischemic injuries” (J Med Chem, 2003)"}
{"biological_target": "Poly [ADP-ribose] polymerase 1 (Homo sapiens, UniProt P09874)", "units": {"IC50": "nM"}}
{"smiles": "Oc1nc2ccccc2c2ccncc12", "IC50": 2600}
{"smiles": "O=c1[nH]c2ncccc2c2ccccc12", "IC50": 311}
{"smiles": "O=C(CN1CCCCC1)Nc1cnc2c(c1)nc(O)c1ccccc12", "IC50": 111}
